Target: T1, human neutrophil elastase (HNE) (Homo sapiens, UniProt P08246)
T1 construct: purchased SERVA Electrophoresis GmbH, Heidelberg, Germany #20927.01
T1 sequence (P08246 30-267): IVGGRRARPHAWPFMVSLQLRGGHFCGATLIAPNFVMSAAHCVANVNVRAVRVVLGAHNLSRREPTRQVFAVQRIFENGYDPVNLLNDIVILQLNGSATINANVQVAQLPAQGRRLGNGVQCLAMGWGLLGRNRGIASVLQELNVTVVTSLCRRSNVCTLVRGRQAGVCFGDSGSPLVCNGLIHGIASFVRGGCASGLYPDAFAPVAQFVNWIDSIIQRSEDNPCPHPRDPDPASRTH
Test: In vitro inhibition of HNE using a fluorogenic peptide substrate (continuous read-out signal, 384 MTP assay format)
Type: biochemical
Details: substrate MeOSuc-Ala-Ala-Pro-Val-AMC, 37° C.
Experimental: I. In vitro Enzyme Assays of Human Neutrophil Elastase (HNE)
assay buffer: 0.1 M HEPES-NaOH buffer pH 7.4, 0.5 M NaCl, 0.1% (w/v) bovine serum albumin;
suitable concentration (see below) of substrate in assay buffer;
suitable concentration of test compounds diluted with assay buffer from a 10 mM stock solution in DMSO.
The test solution is prepared by mixing 10 μl of test compound dilution, 20 μl of HNE enzyme dilution (final concentration 8-0.4 μU/ml, routinely 2.1 μU/ml) and 20 μl of substrate dilution (final concentration 1 mM-1 μM, routinely 20 μM), respectively. The solution is incubated for 0-2 hrs at 37° C. (routinely one hour). The florescence of the liberated AMC due to the enzymatic reaction is measured at 37° C. (TECAN spectra fluor plus plate reader). […] IC50 values are determined by RFU-versus-[I] plots. Km and Km(app.) values are determined by Lineweaver-Burk inverted to Ki values by Dixon plots.

Compound `CC(=O)C1=C(C)N(c2cccc(C(F)(F)F)c2)C(=O)NC1c1ccc(C#N)nc1` (centres unmarked) [Example 73, 5-{5-Acetyl-6-methyl-2-oxo-1-[3-(trifluoromethyl)phenyl]-1,2,3,4-tetrahydro-4-pyrimidinyl}-2-pyridinecarbonitrile] has an IC50 of 60 nM.

`CC(=O)C1=C(C)N(c2cccc(C(F)(F)F)c2)C(=O)NC1c1ccc(C#N)nc1` (single isomer, unassigned; (+)) [Example 74, (+)-5-{5-Acetyl-6-methyl-2-oxo-1-[3-(trifluoromethyl)phenyl]-1,2,3,4-tetrahydro-4-pyrimidinyl}-2-pyridinecarbonitrile] showed an IC50 of 20 nM.
